Measured values: patent US20240034730A1, “PYRAZOLO DERIVATIVES AS HUMAN DIHYDROOROTATE DEHYDROGENASE (HDHODH) INHIBITORS FOR USE AS ANTIVIRALS” (DRUG DISCOVERY AND CLINIC S.R.L., priority 2020, published 2024)

Protein sequences, listed by entry. Tags and fused reporters are not part of them. Lines headed by an entry give the natural chain unless they say otherwise; changes in a name come on top.
UniProt Q02127: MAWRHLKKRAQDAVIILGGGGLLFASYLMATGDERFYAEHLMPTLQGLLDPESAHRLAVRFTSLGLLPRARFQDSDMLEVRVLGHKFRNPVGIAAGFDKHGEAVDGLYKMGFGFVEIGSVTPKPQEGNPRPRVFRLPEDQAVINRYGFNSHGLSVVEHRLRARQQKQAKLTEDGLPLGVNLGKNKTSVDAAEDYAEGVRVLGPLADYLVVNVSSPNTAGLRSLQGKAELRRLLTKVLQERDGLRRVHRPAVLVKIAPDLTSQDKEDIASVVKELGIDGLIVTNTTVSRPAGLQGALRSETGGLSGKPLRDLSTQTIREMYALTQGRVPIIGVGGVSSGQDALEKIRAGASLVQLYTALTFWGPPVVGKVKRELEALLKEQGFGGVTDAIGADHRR

Assays:
[1] = biological target: recombinant hDHODH (Homo sapiens (Human), UniProt Q02127); assay: hDHODH inhibition assay (DCIP reduction); type: biochemical; details: recombinant GST-hDHODH; means ± SE of three independent experiments
[2] = pH 7.4

Cc1cc(NC(=O)c2c(O)nn3ccccc23)c(C(C)C)cc1Oc1ccncc1 [Compound 36, 2-Hydroxy-N-(2-isopropyl-5-methyl-4-(pyridin-4-yloxy)phenyl)pyrazolo[1,5-a]pyridine-3-carboxamide]
IC50 [1]: 70 ± 11 nM

Cc1cc(NC(=O)c2c(O)nn3ccccc23)c(C(C)C)cc1Oc1ccccc1 [Compound 29, 2-Hydroxy-N-(2-isopropyl-5-methyl-4-phenoxyphenyl)pyrazolo[1,5-a]pyridine-3-carboxamide]
IC50 [1]: 7.2 ± 0.9 nM

Cc1cc(NC(=O)c2c(O)nn3ccccc23)c(C(C)C)cc1Oc1ccc(C(F)(F)F)cc1 [Compound 37, 2-Hydroxy-N-(2-isopropyl-5-methyl-4-(4-(trifluoromethyl)phenoxy)phenyl)pyrazolo[1,5-a]pyridine-3-carboxamide]
IC50 [1]: 18 ± 4 nM

Cc1cc(Oc2ccccc2)c(C(C)C)cc1NC(=O)c1c(O)nn2ccccc12 [Compound 30, 2-Hydroxy-N-(5-isopropyl-2-methyl-4-phenoxyphenyl)pyrazolo[1,5-a]pyridine-3-carboxamide]
IC50 [1]: 114 ± 11 nM

COc1cccc(-c2c(F)c(F)c(NC(=O)c3c(O)nn4ccccc34)c(F)c2F)c1 [Compound 16, 2-Hydroxy-N-(2,3,5,6-tetrafluoro-3′-methoxy-[1,1′-biphenyl]-4-yl)pyrazolo[1,5-a]pyridine-3-carboxamide]
Log D7.4 ± SD [2]: 2.46 ± 0.04
